Literature values as cited in PMC7990704 (Nature chemical biology, 2021).

System: Cdk1
Conditions: cited from earlier work

For CCN1CCN(Cc2ccc(Nc3ncc(F)c(-c4cc(F)c5nc(C)n(C(C)C)c5c4)n3)nc2)CC1 [abemaciclib], the “activity against Cdk1 in vitro” value is listed as “lacking potent activity”.
